Publication PMC9555642 (PLoS ONE, 2022)

Sequences of proteins named here, by UniProt entry; tags and fusion partners are left off.
UniProt Q13547, whole entry: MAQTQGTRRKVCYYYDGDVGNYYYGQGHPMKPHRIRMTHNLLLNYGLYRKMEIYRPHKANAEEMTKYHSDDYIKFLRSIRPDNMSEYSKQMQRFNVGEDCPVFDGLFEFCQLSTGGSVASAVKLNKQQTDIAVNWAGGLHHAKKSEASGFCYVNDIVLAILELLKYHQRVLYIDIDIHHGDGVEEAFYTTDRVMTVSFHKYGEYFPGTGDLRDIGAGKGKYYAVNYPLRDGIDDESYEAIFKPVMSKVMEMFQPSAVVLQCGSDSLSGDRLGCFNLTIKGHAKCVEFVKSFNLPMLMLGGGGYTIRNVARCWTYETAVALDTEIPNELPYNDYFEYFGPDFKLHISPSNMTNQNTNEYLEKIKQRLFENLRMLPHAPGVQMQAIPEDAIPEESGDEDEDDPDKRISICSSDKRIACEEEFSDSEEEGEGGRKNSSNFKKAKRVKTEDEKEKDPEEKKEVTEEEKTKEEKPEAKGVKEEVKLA
UniProt Q92769, whole entry: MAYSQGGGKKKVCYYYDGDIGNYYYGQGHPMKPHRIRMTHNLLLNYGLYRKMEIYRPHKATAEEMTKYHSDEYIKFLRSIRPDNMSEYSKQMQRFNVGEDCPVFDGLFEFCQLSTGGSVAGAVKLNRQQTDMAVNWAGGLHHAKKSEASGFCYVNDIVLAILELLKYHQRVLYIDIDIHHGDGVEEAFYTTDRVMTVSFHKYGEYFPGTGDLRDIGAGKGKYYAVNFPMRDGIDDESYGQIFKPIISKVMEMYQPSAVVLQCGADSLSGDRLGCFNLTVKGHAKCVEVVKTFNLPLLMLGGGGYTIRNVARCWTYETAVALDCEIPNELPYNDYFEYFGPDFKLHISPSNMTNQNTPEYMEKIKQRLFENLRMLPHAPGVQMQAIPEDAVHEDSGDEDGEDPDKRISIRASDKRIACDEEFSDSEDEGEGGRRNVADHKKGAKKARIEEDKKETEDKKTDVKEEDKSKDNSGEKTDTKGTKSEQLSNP
UniProt Q14524, whole entry: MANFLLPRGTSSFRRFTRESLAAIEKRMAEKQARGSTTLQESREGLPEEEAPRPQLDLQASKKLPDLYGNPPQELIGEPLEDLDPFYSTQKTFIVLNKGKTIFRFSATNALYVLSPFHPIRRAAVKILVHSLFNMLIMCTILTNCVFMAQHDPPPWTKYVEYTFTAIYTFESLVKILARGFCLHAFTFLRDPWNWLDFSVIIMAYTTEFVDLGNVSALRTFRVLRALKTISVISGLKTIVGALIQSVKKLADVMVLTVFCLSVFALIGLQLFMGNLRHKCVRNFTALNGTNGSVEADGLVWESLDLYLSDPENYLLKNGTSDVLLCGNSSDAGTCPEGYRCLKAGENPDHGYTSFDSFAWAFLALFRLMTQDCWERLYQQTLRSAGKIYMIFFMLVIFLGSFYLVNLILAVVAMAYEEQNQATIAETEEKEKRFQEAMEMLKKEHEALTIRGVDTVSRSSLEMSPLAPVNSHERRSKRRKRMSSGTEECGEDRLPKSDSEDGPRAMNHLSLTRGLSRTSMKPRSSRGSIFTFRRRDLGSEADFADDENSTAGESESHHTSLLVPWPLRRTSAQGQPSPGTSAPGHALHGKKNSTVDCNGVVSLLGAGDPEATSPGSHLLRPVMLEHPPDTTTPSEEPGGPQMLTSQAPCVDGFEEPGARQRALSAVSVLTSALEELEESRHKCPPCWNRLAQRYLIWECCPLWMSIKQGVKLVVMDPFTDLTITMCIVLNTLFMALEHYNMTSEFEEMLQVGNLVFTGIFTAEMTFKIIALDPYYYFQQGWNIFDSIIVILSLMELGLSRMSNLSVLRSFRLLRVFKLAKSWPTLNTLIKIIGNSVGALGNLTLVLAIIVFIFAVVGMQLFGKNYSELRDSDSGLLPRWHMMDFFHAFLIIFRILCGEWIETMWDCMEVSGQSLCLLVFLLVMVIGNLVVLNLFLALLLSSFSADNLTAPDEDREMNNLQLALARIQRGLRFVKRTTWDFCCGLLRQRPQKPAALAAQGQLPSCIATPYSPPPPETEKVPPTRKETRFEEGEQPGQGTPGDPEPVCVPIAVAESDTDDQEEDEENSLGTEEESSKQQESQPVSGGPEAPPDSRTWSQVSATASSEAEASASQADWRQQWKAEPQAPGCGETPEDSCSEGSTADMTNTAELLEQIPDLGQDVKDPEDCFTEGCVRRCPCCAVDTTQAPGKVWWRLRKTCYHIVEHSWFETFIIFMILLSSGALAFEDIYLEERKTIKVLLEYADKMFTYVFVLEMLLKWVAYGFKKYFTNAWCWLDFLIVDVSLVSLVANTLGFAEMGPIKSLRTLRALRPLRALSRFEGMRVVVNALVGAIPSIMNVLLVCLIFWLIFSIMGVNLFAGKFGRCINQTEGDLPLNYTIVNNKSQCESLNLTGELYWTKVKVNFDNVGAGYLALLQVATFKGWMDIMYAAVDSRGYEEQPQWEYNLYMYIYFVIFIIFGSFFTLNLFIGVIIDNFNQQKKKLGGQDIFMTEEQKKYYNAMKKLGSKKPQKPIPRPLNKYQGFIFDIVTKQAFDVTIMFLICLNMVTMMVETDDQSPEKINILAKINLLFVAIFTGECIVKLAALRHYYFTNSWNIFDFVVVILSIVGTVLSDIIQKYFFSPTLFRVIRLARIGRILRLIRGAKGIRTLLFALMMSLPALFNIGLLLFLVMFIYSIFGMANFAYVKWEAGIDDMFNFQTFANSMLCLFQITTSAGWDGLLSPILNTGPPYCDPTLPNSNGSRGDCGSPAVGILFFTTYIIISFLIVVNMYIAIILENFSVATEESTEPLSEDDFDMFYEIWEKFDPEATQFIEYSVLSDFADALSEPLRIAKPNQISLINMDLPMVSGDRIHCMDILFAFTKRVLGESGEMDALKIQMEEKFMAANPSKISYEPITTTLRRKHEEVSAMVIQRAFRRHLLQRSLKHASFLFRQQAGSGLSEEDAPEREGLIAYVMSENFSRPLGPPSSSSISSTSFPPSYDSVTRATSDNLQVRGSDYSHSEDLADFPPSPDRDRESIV

Key:
HDAC1 = biological target: T1, HDAC1 (Homo sapiens, UniProt Q13547); experiment: HDAC enzymatic activity (Eurofins); assay type: biochemical; details: Class I; ACY-1083 mean of two separate measurements, Ricolinostat and Tubastatin A one measurement
T1 construct: purchased Eurofins Pharma Discovery Services 2491

HDAC2 = biological target: T2, HDAC2 (Homo sapiens, UniProt Q92769); experiment: HDAC enzymatic activity (Eurofins); assay type: biochemical; details: Class I; ACY-1083 mean of two separate measurements, Ricolinostat and Tubastatin A one measurement
T2 construct: purchased Eurofins Pharma Discovery Services 2492

HDAC6 = biological target: T3, HDAC6 (Homo sapiens, UniProt Q9UBN7); experiment: HDAC enzymatic activity (Eurofins); assay type: biochemical; details: HDAC enzyme panel
T3 sequence (Q9UBN7 1-1215): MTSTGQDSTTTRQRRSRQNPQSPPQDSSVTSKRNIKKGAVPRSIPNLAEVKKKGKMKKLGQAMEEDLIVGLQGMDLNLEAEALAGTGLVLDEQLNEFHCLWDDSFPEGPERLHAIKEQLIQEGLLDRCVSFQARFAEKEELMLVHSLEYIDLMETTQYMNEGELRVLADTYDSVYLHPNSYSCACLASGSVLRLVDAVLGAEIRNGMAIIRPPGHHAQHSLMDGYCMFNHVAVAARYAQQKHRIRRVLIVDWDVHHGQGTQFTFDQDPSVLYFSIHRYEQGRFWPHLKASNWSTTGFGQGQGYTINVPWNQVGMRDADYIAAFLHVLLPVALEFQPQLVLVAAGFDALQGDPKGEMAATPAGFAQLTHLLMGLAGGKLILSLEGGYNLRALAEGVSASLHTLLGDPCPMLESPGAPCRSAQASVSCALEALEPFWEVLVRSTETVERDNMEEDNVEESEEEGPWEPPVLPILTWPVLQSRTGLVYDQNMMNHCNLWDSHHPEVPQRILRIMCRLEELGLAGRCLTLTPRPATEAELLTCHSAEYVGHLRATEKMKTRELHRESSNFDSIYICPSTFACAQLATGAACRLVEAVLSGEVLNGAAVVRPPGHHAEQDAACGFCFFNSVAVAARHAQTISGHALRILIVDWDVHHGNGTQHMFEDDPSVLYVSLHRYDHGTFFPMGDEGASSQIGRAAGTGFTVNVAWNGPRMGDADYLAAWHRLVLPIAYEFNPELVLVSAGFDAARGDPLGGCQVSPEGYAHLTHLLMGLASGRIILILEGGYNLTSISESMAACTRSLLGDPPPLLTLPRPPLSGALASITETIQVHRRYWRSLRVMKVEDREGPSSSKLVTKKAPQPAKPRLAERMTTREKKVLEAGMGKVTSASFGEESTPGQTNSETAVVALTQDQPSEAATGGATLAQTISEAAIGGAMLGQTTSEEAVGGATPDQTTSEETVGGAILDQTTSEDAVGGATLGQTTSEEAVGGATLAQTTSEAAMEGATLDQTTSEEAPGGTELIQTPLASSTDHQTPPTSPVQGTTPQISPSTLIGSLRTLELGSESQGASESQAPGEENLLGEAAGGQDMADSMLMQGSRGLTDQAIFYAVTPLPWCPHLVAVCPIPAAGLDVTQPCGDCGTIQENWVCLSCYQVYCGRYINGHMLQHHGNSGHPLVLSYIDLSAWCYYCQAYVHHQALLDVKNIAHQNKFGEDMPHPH

[1] = Secondary pharmacology panel of >190 in vitro radioligand binding and enzyme assays; details: only COX2, DAT and Sigma-1 receptor active below 30 μM
[2] = tested on: deacetylation of α-tubulin; details: 10-fold of the cited cell IC50
Nav1.5 = Nav1.5 (Homo sapiens, UniProt Q14524); details: CHO K1 cell line, room temperature, 6 point cumulative assay

With ACY-1083 as the substance, how does the IC50 (HDAC1) read?
The IC50 was 17.2 µM.

And the IC50 (HDAC2)?
The IC50 was 70.7 µM.

And the “selectivity for HDAC6 over HDAC1, 4, 8, 9, 10 and 11” value (HDAC6)?
Its value is > 1000 fold.

And the “selectivity for HDAC6 over HDAC2 and 3” value (HDAC6)?
Its value is > 7000 fold.

What about the “selectivity for HDAC6 towards HDAC5 and HDAC7” value (HDAC6) of the same substance?
The value was > 400 fold.

What about the “selectivity in panel of >190 in vitro radioligand binding and enzyme assays” value [1] of the same substance?
Its value is “excellent selectivity”.

And the “concentration for full HDAC6 blockade (10-fold IC50 from a cell assay)” value [2]?
The value was 0.3–1 μM.

What about the “activity on Nav1.5” value (Nav1.5) of the same substance?
Its value is > 30 µM.
